Measurements reported in patent US20030027819A1, “Beta-sheet mimetics and methods relating to the use thereof” (Molecumetics Ltd., priority 1996, published 2003).

These compounds were tested on thrombus formation (assay: Rat silk thread shunt thrombosis model). Conditions: 100 mg.kg oral, 30 minutes before circulation.
With `NC1CCC(CNC(=O)C2C=CCn3c(=O)n(CCS(=O)(=O)c4ccccc4)c(=O)n32)CC1` (stereo not drawn) the “thrombus formation (thrombus protein, FIGS. 5A and 5B)” value was “significantly inhibit thrombus formation”.

The compounds below were run against thrombin (Bos taurus, UniProt P00735) (assay: Thrombin inhibition by solid phase compounds of Tables 11-15). Conditions: read-out: Ki as thrombin inhibitors (mark at Cpd. No.); mixtures of diastereomers.
For `CC1=CC(C(=O)NCC2CCC(C(=N)N)CC2)n2c(=O)n(CCc3ccccc3)c(=O)n2C1` (stereo not drawn), the Ki was < 10 nM.
For `CC1=CC(C(=O)NCC2CCC(C(=N)N)CC2)n2c(=O)n(CCS(=O)(=O)c3ccccc3)c(=O)n2C1` (stereo not drawn), the Ki was < 10 nM.
With `CCC1(N)C(=O)N2C(Cc3ccccc3)C=CC(C(=O)NC(CCCCN)C(=O)C(N)=O)N2C1=O` (stereo not drawn) the Ki was < 10 nM.
In the case of `CC1C=CC(C(=O)NCC2CCC(N)CC2)n2c(=O)n(CC(c3ccccc3)c3ccccc3)c(=O)n21` (stereo not drawn), the Ki is reported as < 10 nM.
`COc1ccc(S(=O)(=O)CCn2c(=O)n3n(c2=O)C(C(=O)NCC2CCC(N)CC2)C=CC3)cc1` (stereo not drawn) was tested, and the Ki was < 10 nM.
In the case of `CC1=CC(C(=O)NCC2CCC(N)CC2)n2c(=O)n(CC(C)c3ccccc3)c(=O)n2C1` (stereo not drawn), the Ki is reported as < 10 nM.
`CC1=CC(C(=O)NCC2CCC(N)CC2)n2c(=O)n(CC(c3ccccc3)c3ccccc3)c(=O)n2C1` (stereo not drawn) was tested, and the Ki was < 10 nM.
With `COc1ccc(CCn2c(=O)n3n(c2=O)C(C(=O)NCC2CCC(C(=N)N)CC2)C=C(C)C3)cc1OC` (stereo not drawn) the Ki was < 10 nM.
In the case of `Cc1ccc(S(=O)(=O)CCn2c(=O)n3n(c2=O)C(C(=O)NCC2CCC(N)CC2)C=CC3)cc1` (stereo not drawn), the Ki is reported as < 10 nM.
For `NC1CCC(CNC(=O)C2C=CCn3c(=O)n(CC(c4ccccc4)c4ccccc4)c(=O)n32)CC1` (stereo not drawn), the Ki was < 10 nM.
For `NC1CCC(CNC(=O)C2C=CCn3c(=O)n(CCS(=O)(=O)c4ccccc4)c(=O)n32)CC1` (stereo not drawn), the Ki was < 10 nM.
